{
  "source": "paper PMC12154787",
  "about": "“Comprehensive Evaluation of the Effects of Hot Air Drying Temperature on the Chemical Composition, Flavor Characteristics and Biological Activity of Houttuynia cordata Thunb” (Foods, 2025)",
  "assay": "Metabolite identification in rat serum by UPLC-LTQ-Orbitrap-MS2 after HCT extract; also: key: +: detected; —: undetected",
  "format": "in vivo, SD rats",
  "settings": "50H group (600 mg/kg BW 50 °C hot-air dried HCT extract)",
  "protocol": "The chromatographic separation was performed on an ACQUITY UPLC BEH C18 column (2.1 × 100 mm, 1.7 μm) maintained at 25 °C. […] The mobile phase flow rate was maintained at 300 μL/min with a 2 μL injection volume.\nMass spectrometric detection was carried out using an LTQ-Orbitrap system equipped with a HESI-II source operating in both positive and negative ionization modes. Full scan MS data were acquired over m/z 50–2000 with mass resolution set to 30,000 (at m/z 400). For structural elucidation, data-dependent MS/MS scans were triggered using a normalized collision energy of 45 eV in the CID cell. The diode array detector was simultaneously monitored at 280 nm and 320 nm. All instrumental operations and data acquisition were controlled by Xcalibur v2.0 software (Thermo Scientific).\nThe animal study protocol was approved by the Animal Ethics Committee of Jiangxi University of Chinese Medicine (Approval No. TEMPOR20230112). A total of 24 female SD rats (200 ± 20 g) were obtained from the Laboratory Animal Center of Jiangxi University of Chinese Medicine (Nanchang, China). […] The identification and quantification of metabolites in rat samples were performed using analytical methodologies consistent with those employed in our previous investigations.",
  "data": [
    {"smiles": "O=C(O)CC(=O)O", "note": "[M28, malonic acid]", "values": [
      {"measurement": "Metabolite detected in Serum, 50H", "value": "+"}
    ]}
  ]
}
